The results in this text go back to PubChem BioAssay AID485317 (Broad Institute, 2010).

The chains behind the UniProt entries cited, without tags or fusion partners.
UniProt P55789, whole entry: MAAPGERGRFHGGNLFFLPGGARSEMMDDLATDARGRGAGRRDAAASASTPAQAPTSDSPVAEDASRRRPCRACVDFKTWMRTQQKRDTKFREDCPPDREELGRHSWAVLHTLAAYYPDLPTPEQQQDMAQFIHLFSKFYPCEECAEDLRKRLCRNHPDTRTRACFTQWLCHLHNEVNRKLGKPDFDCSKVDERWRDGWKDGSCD

The entries are a selection whose mix differs from that of the whole data set. Some tests of the compounds listed are not included; inactive here does not mean inactive elsewhere. Active and inactive are the calls of the source.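 How the source made its calls: active means mean replicate inhibition above about 79%, with every replicate also reaching it (limit read from the data); inconclusive means only one of the two criteria met; inactive means mean below limit and not every replicate reaching it.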

This assay addresses FAD-linked sulfhydryl oxidase ALR (Homo sapiens) (UniProt P55789). The experiment in a line: inhibitors of human ALR sulfhydryl oxidase, primary screen, biochemical, H2O2 detection, HRP-luminol luminescence, single point (AID 485317). Particulars: purified ALR, DTT oxidation, active compounds read high, concentration not given here.
In the case of `COc1cccc(C(=O)NCC2(N3CCCCC3)CCCCC2)c1`, the inhibition was inactive: 2.92%.

On to `COc1ccc(Cl)cc1C(=O)NCC1(N(C)C)CCCCC1`, for which the inhibition was inactive: -20.7%.

As to `O=C(NCC1(N2CCCCC2)CCCCC1)c1cccc(Cl)c1`, the inhibition is inactive: 4.53%.

Turning to `COc1cc(C(=O)NCC2(N(C)C)CCCCC2)c([N+](=O)[O-])cc1OC`, the inhibition is inactive: -11.8%.

Consider `COc1ccc(Br)c(C(=O)NCC2(N3CCCCC3)CCCCC2)c1`, for which the inhibition was inactive: -5.51%.

`CC(C)Oc1ccc(C(=O)NCC2(N(C)C)CCCCC2)cc1`: the inhibition was inactive: -3.31%.

Take `CN(C)c1cccc(C(=O)NCC2(N(C)C)CCCCC2)c1`: the inhibition is inactive: -4.9%.

Regarding `COc1cc(SC)ccc1C(=O)NCC1(N(C)C)CCCCC1`, the inhibition was inactive: -2.56%.

As for `CC(C)N1C(=O)CC2(CCN(CCOC(=O)C(O)(c3ccccc3)c3ccccc3)CC2)C1=O`, the inhibition was inactive: -5.59%.

Regarding `Cc1ccc(C(=O)NCC2(N3CCCCC3)CCCCC2)cc1`, the inhibition is inactive: 0.012%.

`O=C(NCC1(N2CCCCC2)CCCCC1)c1cc([N+](=O)[O-])ccc1Cl`: the inhibition was inactive: -18.1%.

On to `CN1[C@@H]2CC[C@H]1CC(OC(=O)C(O)(c1ccccc1)c1ccccc1)C2` (stereo not given in full), for which the inhibition was inactive: -1.64%.

For the compound `C=CCN1CCN(CCOC(=O)C(O)(c2ccccc2)c2ccccc2)CC1`, the inhibition is inactive: -30.3%.

Turning to `COc1ccc(C(=O)NCC2(N(C)C)CCCCC2)cc1`, the inhibition was inactive: -1.67%.

With `Cc1cc(C(=O)NCC2(N3CCCCC3)CCCCC2)ccc1[N+](=O)[O-]`, the inhibition is inactive: 4.16%.

`CCN1CCCC(OC(=O)C2(O)c3ccccc3C=Cc3ccccc32)C1` (stereo not given): the inhibition is inactive: -0.133%.

`O=C(NCC1(N2CCCCC2)CCCCC1)c1cccc(Br)c1`: the inhibition was inactive: -2.52%.

Take `Cc1ccccc1C(=O)NCC1(N2CCCCC2)CCCCC1`: the inhibition was inactive: -49.9%.

As for `CN(C)C1CCCC1OC(=O)C(O)(c1ccccc1)c1ccccc1` (stereo not given), the inhibition is inactive: -2.34%.

As to `CN(C)c1ccc(C(=O)NCC2(N(C)C)CCCCC2)cc1`, the inhibition was inactive: 71.4%.
